Assay results: US12319655B2, “RAF kinase inhibitors and methods of use thereof” (Deciphera Pharmaceuticals, LLC, priority 2021, dated 2025)

Chains of the proteins cited; added tags and fusions are not shown. Residues count along the entry.
UniProt P15056, 416-766 V600E limits assumed: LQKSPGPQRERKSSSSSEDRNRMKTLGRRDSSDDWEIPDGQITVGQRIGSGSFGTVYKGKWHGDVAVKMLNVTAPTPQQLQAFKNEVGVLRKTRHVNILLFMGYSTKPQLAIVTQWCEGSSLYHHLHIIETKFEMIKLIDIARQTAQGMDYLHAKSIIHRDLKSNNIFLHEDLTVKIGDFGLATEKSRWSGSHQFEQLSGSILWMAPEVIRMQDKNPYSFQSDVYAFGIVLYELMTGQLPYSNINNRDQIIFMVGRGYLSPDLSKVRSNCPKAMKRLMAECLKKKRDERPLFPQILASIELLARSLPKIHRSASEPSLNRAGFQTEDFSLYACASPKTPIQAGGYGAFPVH

Key:
[1] = molecular target: B-Raf (V600E) (SEQ. ID NO: 4) kinase (Homo sapiens (Human), UniProt P15056, V600E); experiment: Biochemical Assay for B-Raf (V600E) (1); conditions: read-out: BRAF VE (1) IC50, Table J, assay version (1)
Protocol: Biochemical Assay for B-Raf (V600E) (1)
Activity of B-Raf (V600E) (SEQ. ID NO: 4) kinase was determined spectroscopically using a coupled pyruvate kinase/lactate dehydrogenase assay that continuously monitors the ATP hydrolysis-dependent oxidation of NADH (e.g., Schindler et al., Science, 2000, 289, 1938-1942). Assays were conducted in 384-well plates (100 μL final volume) using 0.03 nM B-Raf (SignalChem), 1.5 units pyruvate kinase, 2.1 units lactate dehydrogenase, 1 mM phosphoenol pyruvate, 0.28 mM NADH, 30.1 nM MEK (SignalChem), and 1 mM ATP in assay buffer (100 mM Tris, Ph 7.5, 15 mM MgCl2, 0.5 mM DTT, 0.1% octyl-glucoside, 0.002% (w/v) BSA, and 0.002% Triton X-100). Inhibition of B-Raf (V600E) was measured by adding serial diluted test compound (final assay concentration of 1% DMSO). A decrease in absorption at 340 nm was monitored continuously for 6 h at 30° C. on a multi-mode microplate reader (BioTek). The reaction rate was calculated using the 3 to 4 h time frame. The reaction rate at each concentration of compound was converted to percent inhibition using controls (i.e., reaction with no test compound and reaction with a known inhibitor) and IC50 values were calculated by fitting a four-parameter sigmoidal curve to the data using Prism (GraphPad software).

WM3928 cells = experiment: WM3928 Cell Proliferation Assay (1); conditions: read-out: WM3928 (1) IC50
Protocol: WM3928 Cell Proliferation Assay (1)
WM3928 cells (#WM3928-01-0001) are obtained from Rockland Immunochemicals Inc (Gilbertsville, PA). Briefly, cells were grown in MCDB 153 medium (Sigma, #M7403, St. Louis, MO) supplemented with 20% Leibovitz's L-15 (ThermoFisher #11415-064, Waltham, MA), 2% heat inactivated fetal bovine serum (ThermoFisher, #A3840001, Waltham, MA), 5 μg/mL Insulin (Bovine Pancreas) (Sigma, #I0516, St. Louis, MO), 1.68 mM Calcium Chloride (Sigma, #C-34006, St. Louis, MO) and 1% Penicillin/Streptomycin/L-Glutamine (ThermoFisher #10378016, Waltham, MA) at 37° C., 5% CO2, and 95% humidity. Cells are expanded until reaching 70-95% confluency at which point they are subcultured or harvested for assay use. A serial dilution of test compound is dispensed into a 96-well black clear bottom plate in triplicate. Three thousand cells are added per well in 200 μL complete growth medium in the 96-well plate. Plates are incubated for 67-72 hours at 37° C., 5% CO2, and 95% humidity. At the end of the incubation, 40 μL of a 440 μM solution of resazurin (Sigma, #199303, St. Louis, MO) in PBS is added to each well of the plate and plates are incubated for an additional 6-7 hours at 37° C., 5% CO2, and 95% humidity. Plates are read on a Synergy2 or equivalent reader (Biotek, Winooski VT) using an excitation of 540 nm and an emission of 600 nm. Data is analyzed using Prism software (GraphPad, San Diego, CA) to calculate IC50 values.

H2405 cells = experiment: H2405 Cell Proliferation Assay (1); conditions: read-out: H2405 (1) IC50
Protocol: H2405 Cell Proliferation Assay (1)
(§1) H2405 cells (catalog #CRL-5994) are obtained from the American Type Culture Collect (ATTC, Manassas, VA). Briefly, cells were grown in RPMI 1640 supplemented with 5% characterized fetal bovine serum (Invitrogen, Carlsbad, CA) and 1% Penicillin/Streptomycin/L-Glutamine at 37° C., 5% CO2, and 95% humidity. Cells are expanded until reaching 70-95% confluency at which point they are sub-cultured or harvested for assay use. A serial dilution of test compound is dispensed into a 96-well black clear bottom plate in triplicate. Three thousand cells are added per well in 200 μL complete growth medium in the 96-well plate. Plates are incubated for 67-72 h at 37° C., 5% CO2, and 95% humidity. At the end of the incubation, 40 μL of a 440 μM solution of resazurin (Sigma, St. Louis, MO) in PBS is added to each well of the plate and plates are incubated for an additional 5-6 h at 37° C., 5% CO2, and 95% humidity. Plates are read on a Synergy2 or equivalent reader (Biotek, Winooski VT) using an excitation of 540 nm and an emission of 600 nm. Data is analyzed using Prism software (GraphPad, San Diego, CA) to calculate IC50 values.

Miapaca-2 cells = experiment: MiaPaca-2 Cell Proliferation Assay (1); conditions: read-out: MiaPaca2 (1) IC50, single agent
Protocol: MiaPaca-2 Cell Proliferation Assay (1)
as §1, with “Miapaca-2 cells” for “H2405 cells”, “(catalog #CRL-1420)” for “(catalog #CRL-5994)”, “in DMEM” for “in RPMI 1640”, “with 10%” for “with 5%”, “Carlsbad, CA), 2.5% New Zealand sourced horse serum” for “Carlsbad, CA)”

IC50 [1] | IC50 (H2405 cells) | IC50 (Miapaca-2 cells) | SMILES | IC50 (WM3928 cells)
< 100 nM | 100 to 500 nM | 1 to 10 µM | Cc1ncc(NC(=O)c2cn(C(C)C)nn2)cc1-c1cccc(-c2cc(NC(=O)C3CC3)ncn2)c1 | 100 to 500 nM
< 100 nM | 100 to 500 nM | – | CNC(=O)c1cc(-c2cc(-c3cc(NC(=O)c4ccnc(C(C)(C)C#N)c4)ccc3C)cc(C)n2)ccn1 | 100 to 500 nM
< 100 nM | 100 to 500 nM | 1 to 10 µM | CNC(=O)c1cc(-c2cc(-c3cc(NC(=O)c4ccnc(C(F)(F)F)c4)ccc3C)ccn2)ccn1 | –
< 100 nM | 1000 to 10000 nM | – | Cc1ccc(NC(=O)c2ccnc(C(C)(C)C#N)c2)cc1-c1cccc(-c2cc(NC3CN(C)C3)ncn2)c1 | –
